Results taken from patent publication US12281155 (INSTITUT PASTEUR, dated 2025).
Numbering of substitutions follows the chain as printed.

Chains of the proteins cited; added tags and fusions are not shown.
UniProt P12956, whole entry, chain 1 of 2: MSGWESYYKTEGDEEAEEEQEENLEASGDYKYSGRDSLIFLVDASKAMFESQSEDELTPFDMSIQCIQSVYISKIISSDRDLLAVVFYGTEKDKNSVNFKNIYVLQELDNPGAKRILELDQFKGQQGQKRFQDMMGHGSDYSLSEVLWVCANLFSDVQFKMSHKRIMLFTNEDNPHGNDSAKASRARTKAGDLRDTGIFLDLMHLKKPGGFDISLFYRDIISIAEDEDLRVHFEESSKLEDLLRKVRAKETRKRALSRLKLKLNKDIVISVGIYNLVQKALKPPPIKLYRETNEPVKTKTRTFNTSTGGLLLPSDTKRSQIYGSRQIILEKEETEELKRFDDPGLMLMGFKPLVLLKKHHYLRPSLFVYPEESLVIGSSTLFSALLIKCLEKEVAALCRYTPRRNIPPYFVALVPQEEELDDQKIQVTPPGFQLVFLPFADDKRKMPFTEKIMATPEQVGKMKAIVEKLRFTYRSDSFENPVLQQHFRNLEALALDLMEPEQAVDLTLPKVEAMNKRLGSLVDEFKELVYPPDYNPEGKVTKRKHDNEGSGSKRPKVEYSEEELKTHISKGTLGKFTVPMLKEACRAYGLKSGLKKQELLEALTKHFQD
Ku, UniProt P13010, whole entry, chain 2 of 2: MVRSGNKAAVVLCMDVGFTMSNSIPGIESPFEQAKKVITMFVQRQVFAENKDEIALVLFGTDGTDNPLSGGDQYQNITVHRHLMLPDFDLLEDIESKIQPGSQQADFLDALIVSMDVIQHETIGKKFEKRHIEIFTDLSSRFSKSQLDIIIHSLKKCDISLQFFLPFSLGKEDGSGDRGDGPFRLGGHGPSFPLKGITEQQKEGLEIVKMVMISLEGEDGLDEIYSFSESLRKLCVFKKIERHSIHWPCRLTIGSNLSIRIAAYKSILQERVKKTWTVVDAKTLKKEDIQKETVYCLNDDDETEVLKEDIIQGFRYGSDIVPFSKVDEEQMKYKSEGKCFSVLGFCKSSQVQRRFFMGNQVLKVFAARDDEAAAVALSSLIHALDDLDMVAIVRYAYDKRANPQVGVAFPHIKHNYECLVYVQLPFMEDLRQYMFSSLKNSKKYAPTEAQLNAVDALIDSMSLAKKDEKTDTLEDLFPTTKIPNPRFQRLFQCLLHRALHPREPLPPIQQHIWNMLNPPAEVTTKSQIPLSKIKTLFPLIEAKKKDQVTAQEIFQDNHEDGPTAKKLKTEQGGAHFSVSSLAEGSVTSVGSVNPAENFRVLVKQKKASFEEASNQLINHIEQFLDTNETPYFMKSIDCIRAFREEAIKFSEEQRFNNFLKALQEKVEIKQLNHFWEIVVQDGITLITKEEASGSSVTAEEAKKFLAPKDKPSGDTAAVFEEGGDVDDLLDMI

B1: SPK002M A1 antibody (antibody, human IgG1, kappa, V domains shown)
VH: EVQLVESGGGLIQPGGSLRLSCAASTITVTSNYMSWVRQAPGKGLEWVSVIYPGGSTFYADSVKGRFTISADNSKNTLYLQMNSLRAEDTAVYYCARDLVVYGMDVWGQGTTVTVSS
VL: EIVLTQSPGTLSLSPGERATLSCRASQGFSSSYLAWYQQKPGQAPRLLIYGASSRATGIPGRFSGSGSGTDFTLTISRLEPEDFAVYYCQQGVTFGGGTKVEIKR
B2: SPK002M A2 antibody (antibody, human IgG1, kappa, V domains shown)
VH: B1 VH
VL: B1 VL with F29V
B3: SPK002M A5 antibody (antibody, human IgG1, kappa, V domains shown)
VH: B1 VH with T26V
VL: B1 VL with G28S, F29V, V86I
B4: SPK002M A6 antibody (antibody, human IgG1, kappa, V domains shown)
VH: B1 VH with T26G
VL: B1 VL with G28S, F29V, V86I
B5: SPK002M B1 antibody (antibody, human IgG1, kappa, V domains shown)
VH: B1 VH with T26I, A71Y
VL: B1 VL with G28S, F29V, S31D, V86I, Q91Y
B6: SPK002M B2 antibody (antibody, human IgG1, kappa, V domains shown)
VH: B1 VH with T26I, A71Y
VL: B1 VL with G28S, F29V, V86I
B7: SPK002 antibody (parental version Cv2.3194 described in WO 2022/228827) (antibody, V domains shown)
VH: EVQLVESGGGLIQPGGSLRLSCAASGITVTSNYMSWVRQAPGKGLEWVSVIYPGGSTFYADSVKGRFTISRDNSKNTLYLQMNSLRAEDTAVYYCARDLVVYGMDVWGQGTTVTVS
VL: EIVLTQSPGTLSLSPGERATLSCRASQSVSSSYLAWYQQKPGQAPRLLIYGASSRATGIPGRFSGSGSGTDFTLTISRLEPEDFAIYYCQQGVTFGGGTKVEIK
notes: also called SKP002; parent antibody

target: T1, Ku (UniProt P12956 1-609; P13010 1-732); assay: Milliplex autoantigen bead assay (FIG. 2)

Binder	binding result
B1	no binding (tested: 25 µg/ml)
B2	no binding (tested: 25 µg/ml)
B3	no binding (tested: 25 µg/ml)
B4	no binding (tested: 25 µg/ml)
B5	no binding (tested: 25 µg/ml)
B6	no binding (tested: 25 µg/ml)

target: T1, Ku; assay: Milliplex autoantigen bead assay

Binder	binding result
B7	no binding (tested: 25 µg/ml)
